# The entries are a selection whose mix differs from that of the whole data set. The source made the active and inactive calls. The call rests on the fitted dose curve; in most records, active means well fitted inhibition curve with a large enough effect; inconclusive means small, poorly fitted or top-dose-only effect; inactive means flat fitted curve, though single readings scatter.
# Chains of the proteins cited; added tags and fusions are not shown.
# UniProt P18054, whole entry: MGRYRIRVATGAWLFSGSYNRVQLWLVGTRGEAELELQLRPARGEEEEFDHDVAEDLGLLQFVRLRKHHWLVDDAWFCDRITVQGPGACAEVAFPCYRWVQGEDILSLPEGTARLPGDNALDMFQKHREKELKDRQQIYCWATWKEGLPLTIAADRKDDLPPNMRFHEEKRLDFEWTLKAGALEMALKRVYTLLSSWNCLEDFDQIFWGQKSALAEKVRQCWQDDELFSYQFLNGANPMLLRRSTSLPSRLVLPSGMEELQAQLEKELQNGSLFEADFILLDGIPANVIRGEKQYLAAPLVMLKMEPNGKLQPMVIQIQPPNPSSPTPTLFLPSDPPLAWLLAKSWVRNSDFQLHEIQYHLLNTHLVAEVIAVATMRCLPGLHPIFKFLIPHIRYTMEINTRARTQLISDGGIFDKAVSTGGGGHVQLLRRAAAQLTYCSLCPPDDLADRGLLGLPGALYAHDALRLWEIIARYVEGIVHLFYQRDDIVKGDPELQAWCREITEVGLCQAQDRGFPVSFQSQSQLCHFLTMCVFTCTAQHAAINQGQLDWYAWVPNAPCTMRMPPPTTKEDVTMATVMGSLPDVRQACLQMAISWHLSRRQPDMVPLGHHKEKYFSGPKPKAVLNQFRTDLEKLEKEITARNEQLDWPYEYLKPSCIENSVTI
# Target: Polyunsaturated fatty acid lipoxygenase ALOX12 (Homo sapiens) (UniProt P18054)
# Test: qHTS Assay for Inhibitors of 12-hLO (12-human lipoxygenase); further: nearly all actives have a fitted effect of over 55% in size
# Conditions: purified 12-hLO, xylenol orange hydroperoxide absorbance; at 57.1 µM (top of the series)
# Excerpt: Assay Provider: Holman, T.R., University of California, Santa Cruz Screening Center PI: Austin, C.P. Screening Center: NIH Chemical Genomics Center [NCGC] Human lipoxygenase 12hLO is a member of the closely related lipoxygenase family of enzymes which catalyze the site-specific oxidation of arachidonic acid to various hormone precursor molecules and as such is a candidate for drug development in a variety of disease areas, such as cancer and inflammation. Inhibition of 12hLO activity was screened by utilizing arachidonic acid as a substrate. The extent of hydroperoxide product formation was measured by a secondary chromogenic reaction in which xylenol orange (XO, Sigma-Aldrich, cat. number 39,818-7) reacts with the ferric ions produced from the reaction between the hydroperoxide and ferrous ions. The Fe(III)-XO complex is characterized with red-shifted absorbance at 560 nm. A purified preparation of human 12hLO was supplied by Professor Ted Holman, University of California, Santa Cruz.
# Assay Protocol: Buffer: 25 mM Hepes pH 7.0, 0.01% Triton X-100. Reagents/Controls: Buffer in columns 3 and 4 as negative control (no enzyme). […] The absorbance at 405 and 573 nm were measured using ViewLux (Perkin-Elmer) High-throughput CCD imager and absorbance protocol settings. The 573-to-405 absorbance ratio was used to compute reaction progress.
# On the % scale 0 is the no-effect control and ±100 the full control effect.
row,SMILES,"activity change, negative = inhibition"
1,CN(CCCl)CCCl,inactive: -3.42%
2,O=[N+]([O-])C(Cl)(Cl)Cl,inactive: 0.755%
